Tests used:
5-HT1A receptor [1] = target: T1, 5-HT1A receptor (Homo sapiens, UniProt P08908); test: biochemical; assay type: CHO-K1 membranes; set-up: GTPγS agonist functional assay; conditions: GTPγS
T1 construct: gene HTR1A; full-length human recombinant receptor in CHO-K1 cells (Ogeda); crude membranes
Text: Additionally, the reference values obtained were compared to historical values obtained from the same receptor and used to validate the experimental session. […] For the new assays developed in this study (i.e., 5‐ht1E receptor), the two independent pIC50 determined must be concordant with a 1 log unit interval for the assays to be validated.

Chains of the proteins cited; added tags and fusions are not shown.
UniProt P08908, whole entry: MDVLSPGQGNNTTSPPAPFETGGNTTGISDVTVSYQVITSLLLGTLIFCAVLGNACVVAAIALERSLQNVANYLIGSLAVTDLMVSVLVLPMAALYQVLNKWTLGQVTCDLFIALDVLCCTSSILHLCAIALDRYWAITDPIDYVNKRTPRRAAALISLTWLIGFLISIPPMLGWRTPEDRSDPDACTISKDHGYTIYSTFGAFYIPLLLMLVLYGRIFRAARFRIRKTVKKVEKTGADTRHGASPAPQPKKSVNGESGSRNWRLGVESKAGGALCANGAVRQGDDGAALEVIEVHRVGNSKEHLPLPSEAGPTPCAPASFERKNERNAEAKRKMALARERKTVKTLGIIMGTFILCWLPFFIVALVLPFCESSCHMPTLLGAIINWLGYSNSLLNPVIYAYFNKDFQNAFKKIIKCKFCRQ

5-HT1A receptor [2] = target: T1, 5-HT1A receptor; test: biochemical; assay type: CHO-K1 membranes; set-up: radioligand competition binding on cell membranes, filtration and TopCount scintillation counting; conditions: radioligand displacement; read-out: 5‐HT1A / pIC50 (converted)
Procedure: Competition binding was performed in duplicate in the wells of a 96‐well plate containing binding buffer (optimized for each receptor), cell membrane extracts (approximately 20,000 cells distributed in the 96‐well plate), radiotracer, and test agonist. Non‐specific binding was determined by co‐incubation with 200‐fold excess of competitor. Cells were incubated and exposed to varying concentrations (1 pM to 10 μM) of a range of displacer agonists (see below). The samples were incubated in a final volume of 0.1 ml and then filtered over Unifilter plates (Perkin Elmer, Massachusetts, USA) pretreated for 2 hr to limit tracer non‐specific binding. Filters were washed five times with 0.5 ml of ice‐cold washing buffer (tris 50 mM pH 7.4) and 50 μl of Microscint 20 (Perkin Elmer) were added to each filter. The plates were incubated 15 min at room temperature on an orbital shaker and then counted with a TopCount™ (Perkin Elmer) for 1 min per well. […] Additionally, the reference values obtained were compared to historical values obtained from the same receptor and used to validate the experimental session. […] For the new assays developed in this study (i.e., 5‐ht1E receptor), the two independent pIC50 determined must be concordant with a 1 log unit interval for the assays to be validated.

5-HT1A receptor [3] = target: T1, 5-HT1A receptor; test: cell-based; set-up: species or system CHO-K1; cAMP HTRF agonist assay, Gi coupled receptors, inhibition of stimulated cAMP; conditions: cAMP
Procedure: Concentration–response curves were performed in parallel with the agonists. […] After addition of the lysis buffer and 1‐hr incubation, cAMP concentrations were estimated according to the manufacturer specification with the HTRF kit (Cisbio International, Codelet, France). In brief, increasing concentrations of agonists were added to stably transfected cells in buffer in an Optiplate (PerkinElmer Life Sciences, Massachusetts, USA). The plates were incubated, and cells were then lysed by the addition of HTRF reagents (cAMP‐Cryptate and anti‐cAMP‐d2 reagents) and diluted in lysis buffer, followed by incubation at room temperature. […] Additionally, the reference values obtained were compared to historical values obtained from the same receptor and used to validate the experimental session. […] For the new assays developed in this study (i.e., 5‐ht1E receptor), the two independent pIC50 determined must be concordant with a 1 log unit interval for the assays to be validated.

5-HT1A receptor [4] = target: T1, 5-HT1A receptor; test: radioligand competition, CHO-K1 membranes; assay type: binding; conditions: read-out: 5-HT1A / pKi (converted)
Text: radioligand competition, CHO-K1 membranes on 5-HT1A receptor

Work on `CNS(=O)(=O)Cc1ccc2[nH]cc(CCN(C)C)c2c1` [Sumatriptan succinate] yielded an EC50 (5-HT1A receptor [1]) of over 10000 nM, an IC50 (5-HT1A receptor [2]) of 234 nM and an EC50 (5-HT1A receptor [3]) of over 10000 nM. The Ki (5-HT1A receptor [4]) was 72.4 nM.

From publication PMC6965684, “Characterization of binding, functional activity, and contractile responses of the selective 5‐HT1F receptor agonist lasmiditan” (British Journal of Pharmacology, 2019)
